# Measured values: the SangsterLogP compilation
# Assay: method code SF-GLC, from DOI: 10.1002/qsar.19850040403
# Conditions: pH 13.0
compound,measurement,value
NC1CCCCC1,logD,1.49
